From PubChem BioAssay AID1454 (National Center for Advancing Translational Sciences (NCATS), 2008) come the findings set out here.

The list shows a part of the results, in another mix than the full data. Results filed as inconclusive are left out. Activity calls are given as the source filed them. Calls follow the shape of the dose curve; as a rule, active = well fitted inhibition curve with a large enough effect; inconclusive = small, poorly fitted or top-dose-only effect, or effect the other way; inactive = flat fitted curve, though single readings scatter.

The test can be described thus: qHTS Assay for Inhibitors of the ERK Signaling Pathway using a Homogeneous Screening Assay; Stimulation with EGF.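 Also: plate controls were stimulated vehicle wells for no effect and unstimulated vehicle basal for full effect; nearly all actives have a fitted effect of over 55% in size.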 The conditions noted are these: HEK293-V1b, EGF-stimulated phospho-ERK AlphaScreen; at 11.5 µM (top of the series).
As for `CN(CCCl)CCCl`, the activity change, negative = inhibition is inactive: 10%.
